Measured affinities in a library of Ab-95 light chain variants

Binding partner: SARS-CoV-2 spike HR2 peptide, sequence PDVDLGDISGINAS.

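Phage display of a naive human antibody library on the peptide gave the parent. AAYL52 was designed without a model: most single CDR substitutions and a random sample of double and triple ones. AlphaSeq pools MATa yeast showing the antibodies with MATalpha yeast showing the peptide. Binding brings cells together so that they mate, and sequencing counts the barcode pairs among the diploids. Read counts were normalised to the haploid input and turned into Kd by a linear fit to BCL2-family pairs of known affinity, for each replicate. Each pool was mated in three replicate cultures.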

Ab-95 is the parent antibody, in scFv form: VH, then the linker GGGGSGGGGSGGGGS, then VL. The heavy chain is unchanged in all variants.
VH: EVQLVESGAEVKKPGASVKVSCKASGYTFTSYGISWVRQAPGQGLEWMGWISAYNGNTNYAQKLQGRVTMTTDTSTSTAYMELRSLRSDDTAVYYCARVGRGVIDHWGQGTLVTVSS
VL: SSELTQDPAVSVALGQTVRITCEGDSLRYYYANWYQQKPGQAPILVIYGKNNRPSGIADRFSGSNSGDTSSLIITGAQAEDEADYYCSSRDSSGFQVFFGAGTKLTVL

Substitutions are numbered in sequence along the VL above, starting at 1 (not Kabat). Values are log10 of the apparent Kd in nM; lower means stronger binding. A mean of the replicates is given; it leaves out those without a signal. "n.d." marks a missing value. The strain was present, yet no cells mated with the target were sequenced in that replicate, which points to weak or no binding.

changes | log10 Kd (nM) by replicate | log10 Kd (nM), mean | control signals
R28H Y30K S89H | 2.64 / 2.24 / 2.58 | 2.49 | 2/9 (3.45)
G24L | 3.47 / 3.48 / n.d. | 3.47 | 3/9 (3.78)
G24V Y30T S92N | 3.24 / 2.48 / 2.60 | 2.77 | 3/9 (4.06)
Y31P G49Y | 3.84 / 3.58 / 3.48 | 3.63 | 2/9 (4.64)
D25W R53Y S92N | 3.34 / 4.79 / n.d. | 4.07 | 2/9 (4.08)
S92Y | 2.56 / 2.31 / 2.09 | 2.32 | 5/9 (4.36)
R28I S55Y F98H | 4.18 / 3.16 / 3.18 | 3.51 | 2/9 (2.96)
R28D R53I F98M | n.d. / n.d. / 3.48 | 3.48 | 1/9 (4.18)
A32P G49F Q96H | 3.66 / n.d. / 4.44 | 4.05 | 2/9 (3.65)
S88H S93E Q96W | 2.08 / 1.49 / 1.76 | 1.77 | 3/9 (3.89)
G24W Y30N P54H | 2.76 / 3.11 / 3.06 | 2.97 | 2/9 (3.71)
N33L S92F V97D | 3.66 / 4.86 / 4.44 | 4.32 | 3/9 (4.11)
S26M N51Y V97M | n.d. / 4.16 / n.d. | 4.16 | 2/9 (3.78)
A32M G49A P54K | n.d. / 5.21 / n.d. | 5.21 | 2/9 (4.35)
L27G S55R S93L | n.d. / 3.55 / n.d. | 3.55 | 4/9 (4.09)
S89F D91G F95G | 2.78 / 2.81 / 2.23 | 2.61 | 3/9 (3.48)
D25E A32W R53N | n.d. / 4.39 / 4.64 | 4.52 | 2/9 (4.57)
Y29Q Y31F R90Q | 3.17 / 3.34 / 3.56 | 3.36 | 2/9 (3.30)
G24M A32G N33R | 3.40 / n.d. / n.d. | 3.40 | 1/9 (5.22)
K50A S55F F98R | 3.58 / 3.31 / n.d. | 3.45 | 2/9 (3.43)
A32V N33M S89G | n.d. / n.d. / 4.75 | 4.75 | 4/9 (4.20)
Y29N D91Y S92E | 5.09 / 4.66 / n.d. | 4.87 | 1/9 (3.63)
S93L | 2.58 / 2.51 / 2.13 | 2.41 | 6/9 (3.63)
R28I Y29V | n.d. / n.d. / n.d. | n.d. | 0/9
N33L R53N Q96R | 4.04 / n.d. / n.d. | 4.04 | 3/9 (4.87)
Y30N N52M P54C | 1.39 / 1.25 / 0.81 | 1.15 | 6/9 (4.47)
G24I Y30G R53Q | 3.34 / 3.68 / 4.42 | 3.81 | 4/9 (3.87)
L27H S88V S92K | n.d. / 4.18 / 3.55 | 3.86 | 2/9 (4.41)
G24V Y31M N51W | 4.18 / 3.51 / 4.35 | 4.01 | 3/9 (3.97)
Y29I A32N F95C | 2.95 / n.d. / 3.76 | 3.36 | 2/9 (3.66)
S93H F98K | 4.25 / 3.68 / 3.68 | 3.87 | 1/9 (3.23)

Picked from the list: the 2 lowest averages where every replicate gave a value.

| changes | log10 Kd (nM) by replicate | log10 Kd (nM), mean | control signals |
|---|---|---|---|
| Y30N N52M P54C | 1.39 / 1.25 / 0.81 | 1.15 | 6/9 (4.47) |
| S88H S93E Q96W | 2.08 / 1.49 / 1.76 | 1.77 | 3/9 (3.89) |

For reference, the parent read 2.31 as the reference entry and 2.25 as a member of this library. Empty control strains, which show no peptide, gave a signal in 28% of pairings with library AAYL52; the median was 3.91 and 95% of these signals were weaker than 2.90. No background was subtracted. The control count says in how many pairings with the empty strains this scFv gave a signal, with their mean in brackets.

Source: Engelhart et al. 2022 (doi:10.1038/s41597-022-01779-4), MIT Lincoln Laboratory and A-Alpha Bio; data file from the FLAb repository.